# Apparent affinities of Ab-14 variants for a coronavirus HR2 peptide

Source: Engelhart et al. 2022 (doi:10.1038/s41597-022-01779-4), MIT Lincoln Laboratory and A-Alpha Bio; data file from the FLAb repository.

Target peptide (SARS-CoV-2 spike, HR2 region): PDVDLGDISGINAS

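Phage display of a naive human antibody library on the peptide gave the parent. In library AAYL49, one, two or three CDR residues were substituted; doubles and triples were drawn at random. The scFvs were displayed on barcoded MATa yeast, the peptide on MATalpha yeast. After mating in shaken culture at 30 °C for 16 h, diploids were selected and their barcode pairs sequenced. The ratio of observed to expected reads was calibrated, replicate by replicate, on BCL2-family standards whose Kd was known from biolayer interferometry. Mating was done three times.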

Ab-14 is the parent antibody, in scFv form: VH, then the linker GGGGSGGGGSGGGGS, then VL. The light chain is unchanged in all variants.
VH: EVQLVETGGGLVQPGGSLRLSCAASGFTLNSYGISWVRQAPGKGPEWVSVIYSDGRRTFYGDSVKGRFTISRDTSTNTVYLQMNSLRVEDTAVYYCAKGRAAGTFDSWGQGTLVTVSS
VL: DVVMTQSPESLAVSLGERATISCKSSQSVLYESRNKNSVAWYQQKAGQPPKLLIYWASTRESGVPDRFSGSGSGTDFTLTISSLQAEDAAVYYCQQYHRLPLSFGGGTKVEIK

Substitutions are numbered in sequence along the VH above, starting at 1 (not Kabat). Affinities are written as log10 Kd with Kd in nM; a lower number is a better binder. An entry "ND" has no value in the source: the pair was not observed among the diploids in that replicate. This suggests poor binding but is not conclusive.

changes | log10 Kd, replicates | control signals
D54P K65T A101Y | ND / ND / ND | 1/9 (5.48)
L29S D62I | 4.04 / ND / ND | 1/9 (2.04)
G26V G55L G99W | ND / ND / ND | 0/9
Y32V R56A R100N | ND / 4.66 / ND | 0/9
I34H Y52C G55K | ND / 5.55 / ND | 2/9 (4.40)
L29H A102F | ND / 2.87 / 3.88 | 2/9 (3.65)
Y52S D62S D106Q | 5.92 / ND / ND | 3/9 (5.02)
G33W K65R G99N | ND / ND / ND | 0/9
G26C K65R T104V | 4.61 / ND / ND | 1/9 (4.29)
F27Y G33Q I34H | ND / ND / ND | 2/9 (4.24)
S31P S63C G99A | ND / ND / ND | 2/9 (4.76)
A102N T104V F105P | 1.77 / 1.77 / 1.88 | 1/9 (3.96)
I34Y S35G K65D | ND / ND / ND | 3/9 (4.18)
G33W Y52S R57W | ND / ND / ND | 4/9 (3.51)
S31T Y60L G61P | 3.44 / 3.16 / ND | 0/9
I51K G55C T58R | ND / 4.21 / 4.29 | 2/9 (3.32)
G26N T28W D106W | ND / ND / 4.59 | 0/9
T28S N30S R100W | 1.15 / 1.10 / 1.11 | 2/9 (4.28)
S31M V50M G55C | ND / ND / ND | 0/9
L29A N30E D106E | ND / 3.21 / ND | 0/9
Y52D G55P R57Y | ND / 3.27 / ND | 1/9 (2.77)
Y32G Y52T S107Y | ND / ND / ND | 2/9 (4.55)
T28M G103S F105Q | 3.54 / ND / ND | 0/9
D54K K65L T104G | 3.33 / 4.98 / 5.63 | 0/9
Y32K T104V F105Q | ND / ND / ND | 0/9
N30D S35C V64D | ND / ND / ND | 1/9 (3.36)
S53P | 2.28 / ND / 3.49 | 0/9
G33V A101I S107M | ND / ND / ND | 0/9
F27L R100P T104N | ND / ND / ND | 0/9
G26H | 1.68 / 1.54 / 1.89 | 0/9
S31Q G33L D106K | ND / 3.32 / ND | 2/9 (3.62)
T28A L29F S53L | ND / ND / ND | 1/9 (4.39)
F59P R100T T104K | ND / ND / ND | 0/9
V64L A102P F105H | 6.59 / ND / ND | 4/9 (4.61)
T28V G61I D106Q | 1.54 / 1.36 / 1.67 | 3/9 (4.36)
S31R F59C K65R | 2.64 / 2.61 / ND | 3/9 (4.57)
G61I G99V A102Q | 3.29 / 3.14 / 3.54 | 4/9 (3.98)
S53V K65C A102N | ND / ND / ND | 0/9
V50C Y60N G99M | 5.39 / ND / 4.71 | 3/9 (4.45)
Y32N I51F R100Q | ND / 3.02 / ND | 1/9 (5.05)
S31R V50G V64Q | 3.62 / ND / ND | 1/9 (5.22)
G33P R57T V64L | ND / ND / ND | 0/9
L29V S35H S63H | 4.76 / 3.89 / 4.75 | 2/9 (4.33)
L29A D106T S107N | ND / 3.63 / ND | 2/9 (3.22)
F27P K65N S107P | ND / ND / ND | 0/9
S31C S35V V64H | ND / ND / ND | 0/9
R56M V64T F105Q | 3.56 / ND / ND | 1/9 (3.56)
N30G G55S G99W | ND / ND / ND | 2/9 (4.35)
N30S I34E | ND / ND / ND | 1/9 (3.62)

The last 8 entries again:

changes	log10 Kd, replicates	control signals
G33P R57T V64L	ND / ND / ND	0/9
L29V S35H S63H	4.76 / 3.89 / 4.75	2/9 (4.33)
L29A D106T S107N	ND / 3.63 / ND	2/9 (3.22)
F27P K65N S107P	ND / ND / ND	0/9
S31C S35V V64H	ND / ND / ND	0/9
R56M V64T F105Q	3.56 / ND / ND	1/9 (3.56)
N30G G55S G99W	ND / ND / ND	2/9 (4.35)
N30S I34E	ND / ND / ND	1/9 (3.62)

Three control strains display no target. For library AAYL49, 15% of the pairings with them gave a signal, with a median of 4.06 and one signal in twenty below 2.83, so weak values seen in few replicates may be background. The control count says in how many pairings with the empty strains this scFv gave a signal, with their mean in brackets. In this assay the parent's reference entry averaged 0.65; its copy inside this library read 4.11 (one replicate of three).